Holding throughout (format): biochemical
The target of experiment [1] is T1, TbHK1 (Trypanosoma brucei brucei, UniProt Q38C42). As to the kind of experiment: TbHK1 coupled enzyme HTS assay (G6PDH coupled, bacterially expressed rTbHK1). The protocol:
For purification of bacterially expressed TbHK1 (rTbHK1), a previously described protocol was modified to increase yield. Briefly, a starter culture of E. coli M15(pREP) harboring pQE30 (Qiagen, Valencia, CA) with the TbHK1 gene cloned in frame of a 6-His tagging sequence was grown in ECPM1 [9] and then inoculated into a 5 L bioreactor (Biostat B, B. Braun Biotech International, Allentown, PA) and grown at 37°C. At OD600 between 3–5, the culture was induced with IPTG (0.8 mM), grown without supplement O2 (37°C, 16 hr), and cells collected by centrifugation (5000×g, 20 min, 4°C). The pellet was resuspended in lysis buffer (50 mM NaPO4, pH 8.1, 5 mM glucose, 150 mM NaCl, and 0.1% Tween) and lysed by using a cell disruptor (Constant Cell Disruption Systems, Sanford, NC). The resulting supernatant was applied (5 ml/min) to a 50 ml ProBind column (Invitrogen, Eugene, OR) on a FPLC (GE Lifesciences, Piscataway, NJ) and protein eluted by gradient (5 to 250 mM imidazole) in lysis buffer. […]
TbHK1 assays were an adaptation of a coupled enzyme HK assay to a 384-well format, [10]. […] The resulting signal, which remained stable for up to 5 hr after addition of stop reagent, was collected on a Molecular Devices SpectraMax M5 (absorbance at OD340)(Sunnyvale, CA).

Amino acid sequences for entries named in this document (tags omitted).
UniProt Q38C42, entry or part of it: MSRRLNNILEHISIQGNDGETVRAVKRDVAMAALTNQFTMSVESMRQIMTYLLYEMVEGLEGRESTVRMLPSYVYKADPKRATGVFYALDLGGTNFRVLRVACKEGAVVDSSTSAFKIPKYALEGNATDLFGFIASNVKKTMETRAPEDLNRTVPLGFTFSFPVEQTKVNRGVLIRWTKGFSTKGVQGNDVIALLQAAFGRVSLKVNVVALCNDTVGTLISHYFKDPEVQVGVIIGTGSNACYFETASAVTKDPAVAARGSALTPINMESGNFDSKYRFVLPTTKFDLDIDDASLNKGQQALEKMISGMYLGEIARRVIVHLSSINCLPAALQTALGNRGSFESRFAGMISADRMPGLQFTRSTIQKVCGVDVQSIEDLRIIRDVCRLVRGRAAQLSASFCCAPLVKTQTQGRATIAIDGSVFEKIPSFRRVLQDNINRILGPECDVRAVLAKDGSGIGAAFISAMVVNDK

Experiment [2] has as its target T. brucei lysate-derived TbHK1 (Trypanosoma brucei brucei, UniProt Q38C42). In words: Inhibition assay of lysate-derived TbHK. To be noted: read-out: IC50 against T. brucei lysate-derived TbHK1 enzymatic activity; 2×10^5 BSF cell equivalents, 15 min preincubation at RT. The protocol: (§1) Parasite lysates from BSF parasites were prepared by incubation (5 min on ice) of 1.5×10^7 cells in lysis buffer (0.1 M TEA, pH 7.4, and 0.1% Triton X-100) supplemented with 1 mM PMSF, 5 µg/ml leupeptin, and 100 µg/ml TLCK. In triplicate, cell equivalents (2×10^5) were incubated with increasing concentrations of inhibitor for 15 minutes at RT prior to initiation of the coupled reaction. In short, the 200 µl reactions included 50 mM TEA, pH 7.4, 33 mM MgCl2, 20 mM glucose, 5.25 mM ATP, 0.75 mM NADP, and 0.1 units of G6PDH, with kinetic analyses performed using KaleidaGraph 4.1 (Synergy Software, Reading, PA).

Experiment [3] concerns the target T1, TbHK1. As to the kind of experiment: Kinetic analysis of TbHK1 inhibition with respect to ATP (Lineweaver-Burk). The protocol: as §1
Assays were performed as described for cell lystates (see Materials and Methods) with ATP concentrations varied.

This note sets out measurements from PMC2854128, “A Target-Based High Throughput Screen Yields Trypanosoma brucei Hexokinase Small Molecule Inhibitors with Antiparasitic Activity” (PLoS Neglected Tropical Diseases, 2010).

As a reminder, the IC50 is the concentration that inhibits the measured activity by half. Broadly, the Ki is the equilibrium dissociation constant of an inhibitor or competing ligand from its target. Regarding `O=c1c2ccccc2sn1-c1ccccc1` [SID 17387000, 2-phenyl-1,2-benzisothiazol-3(2H)-one], the figures for the IC50 (at TbHK1 [1]; in experiment [2]) were 2000 ± 500 nM and 1200 ± 120 nM, respectively. Besides, on TbHK1 [3], the Ki turned out to be 6890 nM. On TbHK1 [3] (with respect to ATP), the “Nature of TbHK1 inhibition” value is given as “mixed inhibitors”.
